## Apparent affinities of Ab-91 variants for a coronavirus HR2 peptide

Target peptide (SARS-CoV-2 spike, HR2 region): PDVDLGDISGINAS

Parent: Ab-91, a human scFv built as VL, a 15-residue (Gly4Ser)3 linker, VH. Only the CDRs of the heavy chain vary.
VL: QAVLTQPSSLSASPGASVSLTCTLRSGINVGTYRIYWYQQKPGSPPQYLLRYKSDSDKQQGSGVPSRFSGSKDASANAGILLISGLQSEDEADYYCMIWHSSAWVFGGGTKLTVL
VH: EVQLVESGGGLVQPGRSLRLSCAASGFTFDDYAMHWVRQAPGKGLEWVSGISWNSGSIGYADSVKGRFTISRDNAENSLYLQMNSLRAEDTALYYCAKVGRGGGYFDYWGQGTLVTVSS

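The parent was found by panning a naive human phage display library on the peptide. The library (AAYL51) carries one to three amino acid substitutions per variant, with no insertions or deletions. AlphaSeq pools MATa yeast showing the antibodies with MATalpha yeast showing the peptide. Pairs that bind mate more often; barcode pairs of the diploids are counted by sequencing. Read counts were normalised to the haploid input and turned into Kd by a linear fit to BCL2-family pairs of known affinity, for each replicate. Each pool was mated in three replicate cultures.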

Changes read parent residue, position, new residue, counted from the first residue of the VH shown. Every variant below is changed at G100 of the VH (sequential numbering). Affinities are written as log10 Kd with Kd in nM; a lower number is a better binder. "ND" means that the variant was in the library but no mating with the target was seen in that replicate; the authors take this as a sign of poor binding, and no number exists. Nonspecific signal, from three strains lacking the peptide, appeared in 21% of pairings of library AAYL51, centred on 4.54 (5% of these signals below 3.26); values are not corrected for it. For each scFv, signals with the empty controls are counted beside the result, with their mean in brackets.

changes	log10 Kd (nM) by replicate	empty controls
G100I/Y105N/Y108E	ND / ND / ND	0/9
D31I/I58P/G100W	5.89 / 6.71 / 4.86	8/9 (5.26)
Y32W/S63I/G100Y	ND / 5.32 / ND	1/9 (4.12)
I58Y/V64C/G100M	ND / ND / ND	0/9
S55Y/A61H/G100C	ND / 3.89 / ND	0/9
G100W/G103M/D107T	4.57 / ND / ND	1/9 (3.65)
S57Q/G100D/G104L	ND / 4.65 / 4.79	4/9 (4.18)
G50N/N54E/G100S	4.84 / 4.96 / 4.23	0/9
S55Y/V99Y/G100C	5.50 / ND / ND	0/9
G50A/Y60F/G100L	ND / ND / ND	1/9 (3.00)
A61R/K65G/G100K	ND / 5.03 / ND	4/9 (4.94)
S55Y/G100E/G102E	ND / ND / ND	3/9 (4.36)
G100K/R101T/D107M	ND / ND / 5.10	3/9 (4.59)
V99F/G100R/G104H	ND / 5.31 / ND	2/9 (3.84)
G26D/K65S/G100P	ND / ND / ND	3/9 (4.05)
D30M/G100R/R101E	ND / ND / ND	6/9 (4.58)
G100W/Y105V/F106A	ND / ND / ND	0/9
T28P/K65N/G100P	5.68 / 5.52 / 5.59	2/9 (4.47)
G100D/F106L	ND / ND / ND	0/9
A33K/Y60G/G100Q	ND / ND / 3.71	2/9 (3.81)
G56S/G100S/F106P	ND / ND / ND	4/9 (4.82)
G50V/G56H/G100H	ND / ND / 4.88	2/9 (4.52)
D30A/G100K	3.99 / 4.95 / ND	3/9 (3.93)
S52P/S57D/G100Y	ND / ND / ND	0/9
I58M/D62M/G100M	2.03 / 2.38 / 2.28	2/9 (4.08)
I51V/G100K	ND / ND / ND	0/9
I51G/A61G/G100Y	5.30 / ND / ND	3/9 (5.14)
W53G/N54A/G100P	ND / ND / ND	0/9
Y60G/V64S/G100I	ND / ND / ND	0/9
Y32C/G100R/R101M	2.94 / 2.75 / 2.05	0/9
T28H/G50N/G100L	4.90 / 6.34 / ND	1/9 (4.54)
A33T/I51H/G100N	ND / ND / ND	0/9
G100F/G102Q/G103D	5.12 / 5.36 / 5.63	4/9 (4.99)
G59Q/A61L/G100N	ND / ND / ND	1/9 (4.13)
V64G/K65A/G100P	ND / 3.35 / ND	0/9
F27L/S55P/G100Y	ND / ND / ND	0/9
V64M/G100T/D107Y	ND / ND / ND	0/9
G50P/G100L	4.68 / ND / 5.82	6/9 (5.20)
G100T/G104H	4.45 / ND / 5.04	3/9 (4.37)

Data: MIT Lincoln Laboratory AlphaSeq set, Engelhart et al. 2022, doi:10.1038/s41597-022-01779-4, as distributed in FLAb.